Test results as given in US8629282B2, “Heterocyclic compounds as S1P1 agonists for the treatment of autoimmune and vascular diseases” (Bristol-Myers Squibb Company, priority 2010, dated 2014).

By UniProt entry, the sequences of proteins in these tests, tags left out.
UniProt P21453, whole entry: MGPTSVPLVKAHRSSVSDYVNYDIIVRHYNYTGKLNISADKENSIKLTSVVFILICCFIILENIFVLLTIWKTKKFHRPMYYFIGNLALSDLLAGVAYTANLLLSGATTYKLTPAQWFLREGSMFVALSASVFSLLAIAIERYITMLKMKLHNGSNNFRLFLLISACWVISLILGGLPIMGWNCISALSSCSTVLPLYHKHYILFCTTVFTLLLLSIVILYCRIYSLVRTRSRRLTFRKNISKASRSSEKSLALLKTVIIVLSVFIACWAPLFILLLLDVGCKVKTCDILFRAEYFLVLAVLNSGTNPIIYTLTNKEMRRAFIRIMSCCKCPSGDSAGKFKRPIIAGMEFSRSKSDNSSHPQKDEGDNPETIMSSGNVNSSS

What was measured:
[1] = biological target: S1P1 (membranes from S1P1/CHO cells) (Homo sapiens (Human), UniProt P21453); experiment: Receptor [35S] GTPγS Binding Assay, S1P1; type: biochemical
Procedure: Receptor [35S] GTPγS Binding Assays
Compounds were loaded in a 384 FALCON® v-bottom plate (0.5 μl/well in a 3-fold dilution). Membranes prepared from S1P1/CHO cells or EDG3-Ga15-bla HEK293T cells were added to the compound plate (40 μl/well, final protein 3 μg/well) with MULTIDROP®. [^35S]GTP (1250 Ci/mmol, Perkin Elmer) was diluted in assay buffer: 20 mM HEPES, pH7.5, 10 mM MgCl2, 150 mM NaCl, 1 mM EGTA, 1 mM DTT, 10 μM GDP, 0.1% fatty acid free BSA, and 10 μg/ml Saponin to 0.4 nM. 40 μl of the [^35S] GTP solution was added to the compound plate with a final concentration of 0.2 nM. The reaction was kept at room temperature for 45 min. At the end of incubation, all the mixtures in the compound plate were transferred to a 384 well FB filter plates via GPCR robot system. The filter plate was washed with water 4 times by using the modified manifold Embla plate washer and dried at 60° C. for 45 min. 30 μl of MicroScint 20 scintillation fluid was added to each well for counting at Packard TOPCOUNT®. EC50 is defined as the agonist concentration that corresponds to 50% of the Ymax (maximal response) obtained for each individual compound tested.
A smaller value for GTPγS S1P1 EC50 value indicated greater activity for the compound in the GTPγS S1P1 binding assay. A larger value for the GTPγS S1P3 EC50 value indicated less activity in the GTPγS S1P3 binding assay.

[2] = biological target: human S1P1 (Homo sapiens (Human), UniProt P21453); experiment: S1P1 Binding Assay (33P-S1P radioligand competition); conditions: membranes of CHO cells expressing human S1P1, 0.03 nM 33P-S1P; rounded to two digits
Procedure: Membranes were prepared from CHO cells expressing human S1P1. Cells were dissociated in buffer containing 20 mM HEPES, pH 7.5, 50 mM NaCl, 2 mM EDTA and Protease Inhibitor cocktail (Roche), and disrupted on ice using the Polytron homogenizer. The homogenate was centrifuged at 20,000 rpm (48,000 G) and the supernatant was discarded. The membrane pellets were resuspended in buffer containing 50 mM HEPES, pH 7.5, 100 mM NaCl, 1 mM MgCl2, 2 mM EDTA and stored in aliquots at −80° C. after protein concentration determination.
Membranes (2 μg/well) and 0.03 nM final concentration of 33P-S1P ligand (1 mCi/ml, American Radiolabeled Chemicals) were added to the compound plates. Binding was performed for 45 minutes at room temperature, terminated by collecting the membranes onto GF/B filter plates, and radioactivity was measured by TOPCOUNT®. The competition data of the test compounds over a range of concentrations was plotted as percentage inhibition of radioligand specific binding. The IC50 is defined as the concentration of competing ligand needed to reduce specific binding by 50%.
Table A below lists S1P1 Binding IC50 values from the following examples of this invention measured in the S1P1 binding assay described hereinabove. The results in Table A were rounded to two digits.

Row | EC50 [1] | IC50 [2] | Structure (SMILES)
1 | 6 nM | 14 nM | O=C(O)CCN[C@@H]1COc2cc(-c3noc(-c4onc(-c5ccccc5)c4C(F)(F)F)n3)ccc2[C@@H]1O [Example 53, 3-((3R,4S)-4-Hydroxy-7-(5-(3-phenyl-4-(trifluoromethyl)isoxazol-5-yl)-1,2,4-oxadiazol-3-yl)chroman-3-ylamino)propanoic acid]
2 | 7.8 nM | 24 nM | O=C(O)[C@H]1C[C@@H](N[C@H]2COc3cc(-c4noc(-c5onc(-c6ccccc6)c5C(F)(F)F)n4)ccc3[C@H]2O)C1 [Example 25, (1R,3S)-3-((3S,4R)-4-hydroxy-7-(5-(3-phenyl-4-(trifluoromethyl)isoxazol-5-yl)-1,2,4-oxadiazol-3-yl)chroman-3-ylamino)cyclobutanecarboxylic acid]
3 | 8.1 nM | 12 nM | O=C(O)CCN[C@H]1COc2cc(-c3noc(-c4onc(-c5ccccc5)c4C(F)(F)F)n3)ccc2[C@@H]1O (racemic) [Example 5, 3-((3R*,4R*)-4-hydroxy-7-(5-(3-phenyl-4-(trifluoromethyl)isoxazol-5-yl)-1,2,4-oxadiazol-3-yl)chroman-3-ylamino)propanoic acid]
